## AlphaSeq binding of Ab-91 heavy chain variants to a spike HR2 peptide

Antigen: PDVDLGDISGINAS, a 14-residue peptide of the SARS-CoV-2 spike HR2 region.

The variants keep the light chain, the linker and the frameworks of Ab-91 (scFv order VL, a 15-residue (Gly4Ser)3 linker, VH).
VL: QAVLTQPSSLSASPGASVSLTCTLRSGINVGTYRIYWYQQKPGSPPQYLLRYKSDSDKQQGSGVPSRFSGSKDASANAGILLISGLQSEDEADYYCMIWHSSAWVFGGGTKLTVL
VH: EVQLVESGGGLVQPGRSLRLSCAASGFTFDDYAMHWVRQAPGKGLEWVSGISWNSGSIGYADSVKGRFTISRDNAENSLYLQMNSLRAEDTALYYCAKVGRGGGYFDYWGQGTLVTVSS

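The library (AAYL51) carries one to three amino acid substitutions per variant, with no insertions or deletions. Affinity was read by AlphaSeq, a pooled yeast mating assay with surface-displayed partners. The frequency of each diploid, read from paired DNA barcodes, reflects how well the two displayed proteins bind. Each replicate has its own calibration line, from reference interactions of the BCL2 family. Each pool was mated in three replicate cultures.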

The parent's heavy chain CDRs are GFTFDDYAMH, GISWNSGSIGYADSVK, VGRGGGYFDY; each variant's own CDRs replace them letter for letter.
Values are log10 of the apparent Kd in nM; lower means stronger binding.
The mean shown is taken over the replicates in which the pair was detected.
An entry "nd" has no value in the source: the pair was not observed among the diploids in that replicate. This suggests poor binding but is not conclusive.
Nonspecific signal, from three strains lacking the peptide, appeared in 21% of pairings of library AAYL51, centred on 4.54 (5% of these signals below 3.26); values are not corrected for it. For each scFv, signals with the empty controls are counted beside the result, with their mean in brackets.
Parent in this assay: reference entry 1.86, copy in this library 0.88.

CDR-H1	CDR-H2	CDR-H3	log10 Kd (nM) by replicate	log10 Kd (nM), mean	control signals
AFTTDDYAMH	GISWNSGSIGYADSVK	VGRGGGYFDY	4.51 / nd / 5.38	4.94	4 of 9 (4.73)
GFTFDDYAMS	GISWNSGSIGYADSEK	VGRGGGYDDY	nd / nd / nd	nd	0 of 9
GFRFDDYAMH	GISWNSGSIGYADSVN	VGQGGGYFDY	3.50 / 2.04 / nd	2.77	0 of 9
GFTFDDYAMH	GISWNHGSAGYADSVK	VGRGGGRFDY	2.69 / 1.99 / 1.87	2.18	2 of 9 (4.09)
GFTFDDYAMH	IISWNSGSIGAADSVK	VGRGGGKFDY	5.00 / nd / nd	5.00	2 of 9 (4.27)
GFTFDDYCLH	GISWNSGSIGYADSVK	VGRGGGYSDY	nd / nd / nd	nd	3 of 9 (4.62)
GFTYDDYAMH	GISWNSGSIVYQDSVK	VGRGGGYFDY	4.09 / nd / nd	4.09	0 of 9
GFTFDDMAMP	GISWNSGSIGYADFVK	VGRGGGYFDY	nd / nd / nd	nd	1 of 9 (3.54)
GFTFTDYFMH	GISWNSNSIGYADSVK	VGRGGGYFDY	nd / nd / 4.48	4.48	2 of 9 (3.72)
GFTFDDYAMH	NIRWNSGSIGYADSVV	VGRGGGYFDY	nd / nd / nd	nd	0 of 9
GFTFDDYTMH	GISWNSGSIGWADSVK	VTRGGGYFDY	6.06 / 5.80 / nd	5.93	1 of 9 (3.58)
GFTFDDYAMH	GIRWNSNSIGYADSVK	VYRGGGYFDY	4.50 / 5.68 / nd	5.09	2 of 9 (4.36)
GFTFDDYAMH	GISWNSASIGYADSVK	VGRGGGYFDY	1.45 / 1.27 / 0.78	1.17	0 of 9
GFTFDDYAMH	GISWNSGSIGYAGSVK	VGRGGGKFDY	4.19 / 4.92 / nd	4.56	2 of 9 (4.36)
GFTFDDYAMH	GISWNSGVILYAHSVK	VGRGGGYFDY	4.29 / nd / nd	4.29	2 of 9 (3.83)
PRTFDDYAMH	GISWNSGSIGYADSVK	VGRGGGYTDY	4.38 / 4.84 / 5.24	4.82	3 of 9 (3.77)
GWTSDDYAMH	GISWNSGSIGYADSVK	VGRGMGYFDY	4.40 / nd / nd	4.40	4 of 9 (4.28)
GFEFDDYAMI	GISWNSGSIGYADSVK	VGRGGGYFDS	3.50 / 4.85 / nd	4.17	1 of 9 (2.45)
GFTFDDYAMH	GISWNSGSIGYAPDVK	VGRGGGYFDG	1.79 / 1.73 / 1.29	1.60	3 of 9 (4.73)
GFTFDDYGMH	GISANSGSIGYADSVK	VGRGGGYFDY	-0.01 / 0.10 / -0.66	-0.19	1 of 9 (4.60)
GFTFDDVAMH	GISMNSGSIGYADSVK	VGDGGGYFDY	nd / nd / nd	nd	1 of 9 (3.95)
GFTFDDYAMH	GGSWNSGNIGYAYSVK	VGRGGGYFDY	nd / nd / nd	nd	0 of 9
GFTFDWHAMH	GISWNSKSIGYADSVK	VGRGGGYFDY	5.76 / nd / nd	5.76	2 of 9 (4.63)
GFTFDDYAMH	GISRNSGSIGKADSVK	QGRGGGYFDY	4.01 / nd / nd	4.01	3 of 9 (4.83)
GFTFDDAAMH	GISWNSGSIGYADSGK	VGGGGGYFDY	nd / nd / nd	nd	0 of 9
GFTFDTYAMH	GISWNSGSGGYAGSVK	VGRGGGYFDY	nd / nd / nd	nd	0 of 9
GFTFDDYAMH	GISWNSGSPGYADSVK	VGRGGGWFDY	4.77 / nd / nd	4.77	2 of 9 (3.86)
GFTFYDTAMH	GISWNSGSIGYADSVK	VGQGGGYFDY	2.24 / 1.97 / 2.06	2.09	2 of 9 (5.37)
PFTFDDYAMH	GISWHSGSIGYADSVK	VGRGGGYFDY	nd / nd / nd	nd	1 of 9 (4.28)
GFTFDDYAMH	GIMWNSGSIGYADSVK	VGRGGGVFDY	5.74 / 7.04 / 4.27	5.69	8 of 9 (4.92)
GFTFADYAMQ	GISWNSGSIGYADSVK	VGRGGGYFDD	4.30 / nd / nd	4.30	5 of 9 (4.24)
GFTFDDRAMH	GISWNSGSIGYADHVK	VGRGAGYFDY	5.39 / 5.36 / 5.92	5.56	8 of 9 (4.62)
GFTFDDYAMH	GISWNSGRIGYADSVK	VGRPGGYFQY	nd / nd / nd	nd	3 of 9 (5.00)
YFTFDDYAMH	GISWNSGSIGYADGVK	VGRGGGYFDF	nd / nd / nd	nd	1 of 9 (5.29)
GFTFDDYAMH	GISWNSGSIAYMDSVK	VGRGGGWFDY	2.96 / 2.95 / 3.20	3.03	7 of 9 (4.95)
GFTFDDYAMH	GISCNSGSIGYIDSVE	VGRGGGYFDY	nd / 5.06 / 4.76	4.91	4 of 9 (4.68)
GFTFDDYACH	GISWMSGSIGYADSVK	VGRGGGYKDY	3.98 / 5.56 / nd	4.77	2 of 9 (4.01)
GFTFDDYAMH	GISWNSGSIGPAYSVK	VGRGGFYFDY	nd / nd / nd	nd	1 of 9 (3.81)
GFTFDDYAMH	IISWNSGSIGYADSVQ	VGNGGGYFDY	nd / nd / nd	nd	0 of 9
GFTFDDYAMH	GISWNSGSIDYADSVK	VHRGGGYDDY	5.04 / 4.37 / 4.66	4.69	4 of 9 (4.71)
GFTFDDYAMH	GISCNSGPIGYADSVK	VGSGGGYFDY	nd / nd / nd	nd	0 of 9
GFTFPDYAPH	GISWNSGSIGYADSVK	VGRGGGSFDY	nd / nd / nd	nd	0 of 9
KFTFDDYAMH	GISWISGSIGYADSVK	VGRGGGYFDY	5.46 / nd / nd	5.46	0 of 9
FFTFDDYAMH	GIEMNSGSIGYADSVK	VGRGGGYFDY	nd / nd / nd	nd	0 of 9
GFTYDDYAMH	GISWNSGSIQYADSVK	VGRGGGHFDY	nd / nd / nd	nd	1 of 9 (4.13)
GFEFDDSAMT	GISWNSGSIGYADSVK	VGRGGGYFDY	nd / nd / 5.18	5.18	2 of 9 (4.60)
GKTFDDYAMH	GISWNSGSIGYIDSVK	VGRGGGYFSY	4.36 / nd / nd	4.36	1 of 9 (4.38)
GFTFDDYAMH	GISWNSGSIGYAGSVK	VGRGGGYFDN	nd / nd / nd	nd	0 of 9
GFTFDDYAMH	WISWNSGSIAYADYVK	VGRGGGYFDY	nd / nd / nd	nd	0 of 9

Reference: Engelhart et al. 2022, doi:10.1038/s41597-022-01779-4. File: FLAb, binding data.